# Ab-14 heavy chain CDR variants: yeast mating affinities

The measurements come from Li et al. 2023 (doi:10.1038/s41467-023-39022-2) through the FLAb antibody collection.

Binding partner: SARS-CoV-2 spike HR2 peptide, sequence PDVDLGDISGINAS.

The variants keep the light chain, the linker and the frameworks of Ab-14 (scFv order VH, a 15-residue (Gly4Ser)3 linker, VL).
VH: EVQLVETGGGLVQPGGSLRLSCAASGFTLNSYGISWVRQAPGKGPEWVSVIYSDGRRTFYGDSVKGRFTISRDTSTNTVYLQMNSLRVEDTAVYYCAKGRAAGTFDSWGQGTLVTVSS
VL: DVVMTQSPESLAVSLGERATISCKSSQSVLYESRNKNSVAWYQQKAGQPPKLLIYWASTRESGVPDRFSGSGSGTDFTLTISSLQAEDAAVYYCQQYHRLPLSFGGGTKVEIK

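Phage display of a naive human antibody library on the peptide gave the parent. Designed CDR sequences, proposed from the first random library and measured here. Group labels follow the data file (Ctrl: baseline library sampled from a position-specific scoring matrix, with some repeated check sequences; Rand: our label for a block that the file lists under HC and that is probably the random mutants of the ten best first-round binders; En: ensemble of fine-tuned language models; HC: hill climbing; Gen: genetic algorithm; Gibbs: Gibbs sampling; a sequence that several methods proposed may carry one label only). In AlphaSeq, yeast of one mating type display the scFv and yeast of the other type display the target. Mating (16 h, 30 °C) was followed by selection of diploids and sequencing of their barcodes. Read counts were normalised to the haploid input and turned into Kd by a linear fit to BCL2-family pairs of known affinity, for each replicate. Each pool was mated in six replicate cultures.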

The parent's heavy chain CDRs are GFTLNSYGIS, VIYSDGRRTFYGDSVK, GRAAGTFDS; each variant's own CDRs replace them letter for letter.
This list holds designs with more than six substitutions.
Values are apparent Kd, the geometric mean of the replicates that gave a signal; lower means stronger binding.
Where no diploid with the target was found in any replicate, the entry reads "no signal": below detection, most likely a poor binder, though not proof of it.
Empty control strains, which show no peptide, gave a signal in 1% of pairings with all heavy chain designs; the median was 120 nM and 95% of these signals were weaker than 7.0 nM. No background was subtracted. The control count says in how many pairings with the empty strains this scFv gave a signal.

CDR-H1	CDR-H2	CDR-H3	group	Kd	replicates with signal	empty controls
GFDLNEYGIS	VIYADGQRTFYADSVK	GNEAGTFDV	En_Gen	580 pM	6/6	0/18
GFDLNEYGIS	VIYADGQRTFYSDSVK	GNQAGTFDV	En_HC	410 pM	6/6	0/18
GFDLESYGIS	VIYADGRRTFYADNVK	GENAGTFDI	En_HC	370 pM	6/6	0/18
GFDLNEYGIS	VIYADGRRTFYDDSVK	GELAGTFDL	En_HC	280 pM	6/6	0/18
GFDLNEYGIS	VIYADGRRTAYSDSVK	GEVAGTFDI	En_Gen	820 pM	6/6	0/18
GFDLDEYGIS	VIYADGRRTFYVDSVK	GQAAGTFDQ	En_HC	150 pM	6/6	0/18
GFPIDEYGIS	VIYADGRRTVYSDNVK	GNYGASIAI	En_Gibbs	430 nM	2/6	0/18
GFSLDEMGIS	VIYADGKRSFYQDNVK	GVNSVTFNV	En_Gibbs	no signal	0/6	0/18
GFNLNEYGIS	VIYADGRRTFYADSVK	GEVAGTFDF	En_HC	240 pM	6/6	0/18
GFDLNEYGIS	VIYADGVRTAYADSVK	GEVAGTFDI	En_Gen	450 pM	6/6	2/18
GFDLNEYGIS	VIYADGMRTAYADSVK	GNAAGTFDL	En_Gen	430 pM	6/6	0/18
GFDLNEYGIS	VIYADGRRTFYIDSVK	GEIAGTFNV	En_HC	370 pM	6/6	0/18
GFDLDEYGIS	VIYADGMRTAYTDSVK	GGNAGTFDL	En_Gen	15 nM	6/6	1/18
GFDLDEYGIS	VIYADGMRTAYADDVK	GNVAGTFDI	En_Gen	410 pM	6/6	1/18
GKDLQEYGVS	VIYADGKREQYAGDVK	GGLTGQFDV	En_Gibbs	57 nM	1/6	0/18
GYDIQDYGIS	VIYADGVRVAYHQSVK	GQTAGIFLL	En_Gibbs	no signal	0/6	0/18
GKHLDEYGIS	VIYADGQRVAYSDTVK	GIQGVNVDV	En_Gibbs	no signal	0/6	0/18
GFQLDEYGIS	VIYADGVRSSYVDSVK	GEITSAFSE	En_Gibbs	no signal	0/6	1/18
GFDLEEYGIS	VIYADGQRTFYSDSVK	GENAGTFDI	En_HC	360 pM	6/6	0/18
GFQLNEYGVS	VIYADGMRSSYQDSVK	GSNSSLFDV	En_Gibbs	no signal	0/6	0/18
GFDLNEYGIS	VIYADGSRTFYADSVK	GNVAGTFDQ	En_Gen	220 pM	6/6	0/18
GFDLNEYGIS	VIYADGRRTFYADSVK	GEDAGTFDI	En_HC	3.5 nM	6/6	0/18
GFTLWDYGIS	VIYEDGRRTQYIDSNK	GRAAGTFDI	Rand	no signal	0/6	0/18
GFDLDEYGIS	VIYADGKRTAYADDVK	GENAGTFDQ	En_Gen	3.3 nM	5/6	0/18
GFDLNEYGIS	VIYADGRRTQYIDSVK	GTVAGTFDS	En_HC	110 pM	6/6	0/18
GFDLNEYGIS	VIYADGMRTAYSDSVK	GNVAGTFDI	En_Gen	130 pM	6/6	1/18
GFDLDEYGIS	VIYADGRRTAYADNVK	GETAGTFDV	En_Gen	190 pM	6/6	0/18
GFDLNEFGVS	VIYADGYRASYADKVK	GFNFGQLIV	En_Gibbs	910 pM	6/6	0/18
GFDLNEYGIS	VIYADGRRTAYADSVK	GEAAGTFDE	En_HC	2.7 nM	6/6	0/18
GFDLNEYGIS	VIYADGMRTAYADSVK	GEVAGTFVQ	En_Gen	720 pM	6/6	0/18
GFDLDEYGIS	VIYADGVRTAYADNVK	GQVAGTFDV	En_Gen	290 pM	6/6	0/18
GFDVDEYGIS	VIYADGSRVAILESVK	GKIAGTFDE	En_Gibbs	no signal	0/6	0/18
GFDLNEYGIS	VIYADGLRTSYADSVK	GQNAGTFDV	En_HC	960 pM	6/6	1/18
GFSLDEYGIS	VIYADGRRTMYCDKFK	GELGCTFVG	En_Gibbs	1.7 nM	1/6	0/18
GFSLDNYGIS	VIYADGMRTAYANSVK	GEQDGFDTT	En_Gibbs	no signal	0/6	0/18
GFDLNEYGIS	VIYADGVRTFYADNVK	GNVAGTFDQ	En_HC	180 pM	6/6	1/18
GFGLDDYGIS	VIYADGQRKMYQDNVK	GNVGSLFSV	En_Gibbs	no signal	0/6	0/18
GFDLNEFGIS	VIYADGLQTFYTDNVK	GGNQGAFVI	En_Gibbs	no signal	0/6	0/18
GFDLNEYGIS	VIYADGRRTFYTDSVK	GEVAGTFDM	En_HC	340 pM	6/6	0/18
GFQLNEYGIS	VIYADGKRSEYQDSVK	GGNNSSFSV	En_Gibbs	no signal	0/6	0/18
GFNLNEYGIS	VIYADGNRNFYADSVK	GLHAGFFDI	En_Gibbs	no signal	0/6	0/18
GFDLNEYGIS	VIYADGMRTAYADSVK	GEAAGTFDS	En_HC	31 pM	5/6	1/18
GFDLEEYGIS	VIYADGIRMSYADNVK	GVYSGTDYV	En_Gibbs	65 nM	3/6	0/18
GFDLNEYGIS	VIYADGRRTAYADSVK	GNTAGTFDL	En_Gen	400 pM	6/6	0/18
GFDLNEYGIS	VIYADGRRTFYADSVK	GEAGGTFDQ	En_HC	6.9 nM	4/6	0/18
GFDLNEYGIS	VIYADGRRTFYADSVK	GEIAGTFKL	En_HC	320 pM	6/6	0/18
GFDLNEYGIS	VIYADGVRTAYADSVK	GGNAGTFDQ	En_Gen	640 pM	6/6	0/18
GFDLNEYGIS	VIYADGKRTAYIDSVK	GETAGTFDV	En_Gen	1.7 nM	6/6	0/18
GFDLNEYGIS	VIYADGRRTAYIDSVK	GNTAGTFDV	En_Gen	2.2 nM	6/6	0/18
GFDLNEYGIS	VIYADGRRTFYSDSVK	GQVAGTFDE	En_HC	640 pM	6/6	0/18
GFDLNEYGIS	VIYADGRRTFYADSVK	GQLAGTFTV	En_HC	350 pM	6/6	3/18
GFHLLSYGIS	VIYADGRRTFYADSVK	NSAQGTFDS	Ctrl	no signal	0/6	1/18
GFDLNEYGIS	VIYADGRRTAYADSVK	GNEAGTFDL	En_Gen	260 pM	6/6	0/18
GFDLNEYGIS	VIYADGQRTAYADKVK	GENAGTFDV	En_Gen	530 pM	6/6	0/18
GFDLNEYGIS	VIYADGRRTAYTDSVK	GGNAGTFIS	En_HC	no signal	0/6	0/18
GFDLDEYGVS	VIYADGHRNQYTEDVK	GTNSGAVDM	En_Gibbs	no signal	0/6	1/18
GFDLNEYGIS	VIYADGRRTAYTDSVK	GHAAGTFDL	En_HC	230 pM	6/6	1/18
GFDLDEYGIS	VIYADGKRTAYADNVK	GNNAGTFDV	En_Gen	540 pM	6/6	0/18
GEELEEYGIS	VIYADGRKQSYSDSFK	GAIAGNFDM	En_Gibbs	no signal	0/6	0/18
GNELSEYGIS	VIYADGIRTNYSQNVK	GTLAGTFTQ	En_Gibbs	no signal	0/6	1/18
GFDLNEYGIS	VIYADGVRTFYSDSVK	GEIAGTFDV	En_HC	44 nM	4/6	0/18
GFDLNEYGIS	VIYADGMRSAYADSVK	GNVAGTFDL	En_Gen	500 pM	6/6	1/18
GFDLNEYGIS	VIYADGKRTAYADSVK	GKVAGTFDV	En_Gen	160 pM	6/6	0/18
GFDLNEYGIS	VIYADGSRTFYADSVK	GQTAGTFDA	En_HC	620 pM	6/6	0/18
GRDIESYGIS	VIYADGLRTVYHDSVK	GQNAGFSIT	En_Gibbs	no signal	0/6	0/18
GFDLNEYGIS	VIYADGMRTFYADSVK	GNTAGTFDS	En_HC	330 pM	6/6	1/18
GQQLDEYGIS	VIYADGVRTSYTNQVK	GEHAGTFMQ	En_Gibbs	no signal	0/6	0/18
GFDLNEYGIS	VIYADGQRTVYADSVK	GNVAGTFDM	En_Gen	550 pM	6/6	0/18
GFDLNEYGIS	VIYADGMRTFYADSVK	GEVAGTFDM	En_Gen	760 pM	6/6	0/18
GYSLEEYGIS	VIYADGRRTAYADNVK	GMSGADGMF	En_Gibbs	6.0 µM	1/6	0/18
GFDLNEYGIS	VIYADGRRTAYADSVK	GQVAGTFDS	En_HC	110 pM	6/6	0/18
GMDLEEYGIS	VIYADGMRTYAVDSVK	GDQGGTLDY	En_Gibbs	no signal	0/6	0/18
GFKLEEYGIS	VIYADGKRVAYQDAVK	GKHAGMFLV	En_Gibbs	no signal	0/6	2/18
GFDLNEYGIS	VIYADGRRTFYSDSVK	GNVAGTFDA	En_HC	240 pM	6/6	0/18
GFDLNEYGIS	VIYADGQRTAYIDSVK	GNVAGTFDQ	En_Gen	540 pM	6/6	1/18
GFDLNEYGIS	VIYADGQRTFYTDSVK	GETAGTFDV	En_HC	760 pM	6/6	1/18

Excerpt, the final 8 entries:

CDR-H1	CDR-H2	CDR-H3	group	Kd	replicates with signal	empty controls
GFDLNEYGIS	VIYADGMRTFYADSVK	GEVAGTFDM	En_Gen	760 pM	6/6	0/18
GYSLEEYGIS	VIYADGRRTAYADNVK	GMSGADGMF	En_Gibbs	6.0 µM	1/6	0/18
GFDLNEYGIS	VIYADGRRTAYADSVK	GQVAGTFDS	En_HC	110 pM	6/6	0/18
GMDLEEYGIS	VIYADGMRTYAVDSVK	GDQGGTLDY	En_Gibbs	no signal	0/6	0/18
GFKLEEYGIS	VIYADGKRVAYQDAVK	GKHAGMFLV	En_Gibbs	no signal	0/6	2/18
GFDLNEYGIS	VIYADGRRTFYSDSVK	GNVAGTFDA	En_HC	240 pM	6/6	0/18
GFDLNEYGIS	VIYADGQRTAYIDSVK	GNVAGTFDQ	En_Gen	540 pM	6/6	1/18
GFDLNEYGIS	VIYADGQRTFYTDSVK	GETAGTFDV	En_HC	760 pM	6/6	1/18

The parent sequence was in this pool as ten entries: three were never detected, three once, and four in most replicates, with averages from 2.2 nM to 240 nM.
The range of this assay differs from that of the first round, and the authors advise against merging the two.
In the paper, a design with two or fewer of six values counts as a poor binder.